PMC7115498 (European Journal of Medicinal Chemistry, 2009)

Test system: MT-4 cells
Conditions: MTT method
[1] = IIIB experiments P3.4401 and P3.4406
[2] = ROD experiments P3.4402 and P3.4407

Compound | CC50 [1] | CC50 [2]
CCCCCCCCCC(=O)Oc1ccc(/C=C/C(=O)CC(=O)/C=C/c2ccc(OC(=O)CCCCCCCCC)c(OC)c2)cc1OC [Compound 3, 1,7-Bis-[(4,4-di-O-decanoyl)3-methoxyphenyl]-1,6-heptadiene-3,5-dione] | 91 nM | 44 nM
COc1cc(/C=C/C(=O)CC(=O)/C=C/c2ccc(O)c(OC)c2)ccc1O [Curcumin, 1,7-bis(4-hydroxy-3-methoxyphenyl)-1,6-heptadiene-3,5-dione, reference compound] | 34 nM | 39 nM

Like-named read-outs stand apart in the source and are kept apart here.
